Data as given in article PMC12703741, “Light-Activated Metal-Dependent Protein Degradation: A Heterobifunctional Ruthenium(II) Photosensitizer Targeting New Delhi Metallo-β-lactamase 1” (Journal of the American Chemical Society, 2025).
Several values for one entry are separate records, joined by “and”; a condition that tells them apart may be missing. Equal entries are not always repeated. Where two headings read alike, the source gives them in different places.

The chains behind the UniProt entries cited, without tags or fusion partners. Residues count along the entry.
UniProt C7C422, 31-270 limits assumed: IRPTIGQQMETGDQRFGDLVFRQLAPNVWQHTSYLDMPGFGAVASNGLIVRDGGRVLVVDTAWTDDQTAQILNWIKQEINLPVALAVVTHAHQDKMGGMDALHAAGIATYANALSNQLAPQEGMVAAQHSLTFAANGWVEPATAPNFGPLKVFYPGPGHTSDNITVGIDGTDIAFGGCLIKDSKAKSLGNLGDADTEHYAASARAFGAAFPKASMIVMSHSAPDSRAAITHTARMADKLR
UniProt C7C422, 29-270 limits assumed: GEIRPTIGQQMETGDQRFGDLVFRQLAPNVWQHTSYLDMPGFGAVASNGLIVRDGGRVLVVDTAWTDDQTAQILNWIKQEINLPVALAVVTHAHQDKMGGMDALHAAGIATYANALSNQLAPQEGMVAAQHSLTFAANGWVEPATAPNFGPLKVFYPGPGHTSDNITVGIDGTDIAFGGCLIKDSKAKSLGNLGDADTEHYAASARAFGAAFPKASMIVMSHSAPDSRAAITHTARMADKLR

What was measured:
NDM-1 = NDM-1 (Klebsiella pneumoniae, UniProt C7C422); settings: recombinant NDM-1, nitrocefin
[1] = Chromatographic LogD measurement; settings: pH 7.4
[2] = Photostability by UV-Vis in PBS; type: physicochemical; settings: 10 μM, 450 nm
Procedure: Both complexes were stable up to and including 23 J cm^–2 (Figure S5). The lifetime of the excited state is one of the key factors which affect ROS generation. […] To quantify the generation of ^1O2 produced by the complexes, 1,3-diphenylisobenzofuran (DPBF) was used as a ^1O2 scavenger. […]
spectra of both compounds in PBS ( 10 μM) under light irradiation (450 nm, 23 J cm -2 over 240 […]
1.2.4 Electron Paramagnetic Resonance (EPR)
All EPR measurements were performed using a Bruker Magnettech spectrometer (ESR5000), Bruker (Germany), at room temperature. EPR samples were transferred to a 20 μL BLAUBRAND micropipette and spectra were recorded at 9.47 GHz microwave frequency, 2 mW microwave power, 100 kHz modulation frequency and 0.1 mT modulation amplitude. The field was scanned from 331.3 mT to 343.3 mT and a single scan was acquired.

RAW264.7 = settings: RAW
[3] = Luminescence lifetime of the excited state; type: physicochemical; settings: PBS
E. coli empty = settings: 320 μM, 1 h
Procedure: (§1) In parallel, a control set was incubated without compounds for 50 min, followed by incubation with 75 μM meropenem trihydrate for 10 min. Cells were then pelleted, washed, resuspended in water, lysed, and clarified before LC-MS analysis.
(§2) 1.12 LC-MS accumulation assay
(§3) 1.12.1 Bacterial Strains and Growth Conditions:
(§4) Accumulation assay was performed two E. coli K-12 MG1655 strains transfected with pSU18 vector containing NDM-1 expression or an empty vector control. Cell growth was performed in Luria-Bertani (LB) broth (NaCl 10g/L, K2HPO4 6.3 g/L, KH2PO4 1.8 g/L, sodium citrate […]
(§5) 1.12.2 Preparation of Accumulation Assay Samples for LC-MS Analysis:
(§6) Assay was adapted from the work of Geddes et al. and Widya et al.9–11 E. coli MG1655 pSU18 NDM-1 and pSU18 Empty were grown from single colonies at 37 °C with aeration, while shaking at 180 rpm for 18 hours. The overnight suspensions were subcultured (1:100) in fresh LB and incubated to yield an OD600 of 0.55-0.60. The were harvested and pelleted at 3500 × g for 15 minutes at 4 °C. The pellets were washed with Meuller -Hinton II (MHII) broth and pelleted again under the same conditions. The pellets were resuspended in a n adjusted volume of fresh MHII to achieve an OD 600 ≈ 10.0. Shielded from ambient light, cells were incubated with 320 μM of metal complex for 1 hour while shaking at 180 rpm. […]
(§7) nM were also prepared to assess quantitative accuracy. […]

E. coli NDM-1 = settings: 320 μM, 1 h
Procedure: as §1, §2, §3, §4, §5, §6, §7

NDM-1 in E. coli NDM-1 = NDM-1 in E. coli NDM-1 (Klebsiella pneumoniae, UniProt C7C422); settings: E. coli NDM-1, nitrocefin
[4] = 1O2 quantum yield by DPBF photooxidation; type: physicochemical; settings: oxygenated methanol, 450 nm

With “[Ru(2,2'-bipyridine)2(1-(4-(3-aminophenyl)pyridine-2,6-dicarboxylic acid)-imidazo[4,5,f][1,10]phenanthroline)](PF6)2 [Ru1]” the LD50 (HeLa; 24 h) was > 50 µM, the LD50 (HeLa; 48 h) was > 50 µM and the IC50 (NDM-1; read-out: IC50(dark), dark) was 23 ± 1.4 µM. The IC50 (NDM-1; read-out: IC50(light), light 450 nm, 20 J cm^-2) was 0.22 ± 0.02 µM, the ChromLogD [1] was -0.04 and the “Light dose up to which complex is stable” value [2] was ≥ 23 J cm^–2. For the same substance, the LD50 (RAW264.7; 24 h) was > 50 µM, the LD50 (RAW264.7; 48 h) was > 50 µM and the “Luminescence lifetime of excited state” value [3] was 481 ns. The LD50 (HepG2; HepG2, 24 h) was > 50 µM, the LD50 (HepG2; HepG2, 48 h) was > 50 µM and the Accumulation (E. coli empty) was 604 nM/OD600. The Accumulation (E. coli NDM-1) was 370 nM/OD600, the LD50 (HEK293T; 24 h) was > 50 µM and the LD50 (HEK293T; 48 h) was > 50 µM. The IC50 (NDM-1 in E. coli NDM-1; read-out: IC50(dark), dark) was 22.4 µM and 22 µM, the IC50 (NDM-1 in E. coli NDM-1; read-out: IC50(light), light 450 nm, 60 J cm^-2) was 0.75 ± 0.054 µM and the LD50 (HaCaT; 24 h) was > 50 µM. For the same substance, the LD50 (HaCaT; 48 h) was > 50 µM, the LD50 (hTERT RPE-1; RPE1, 24 h) was > 50 µM and the LD50 (hTERT RPE-1; RPE1, 48 h) was > 50 µM. For the same substance, the LD50 (HCT116; HCT116, 24 h) was > 50 µM, the LD50 (HCT116; HCT116, 48 h) was > 50 µM and the “1O2 quantum yield (ΦΔ)” value [4] was 0.89.
